Values of other authors, collected in patent publication US12624118B2, “Trispecific binding molecules against BCMA and uses thereof” (Novartis AG, priority 2019, dated 2026).

System: EGFR mutant NSCLC
Details: cited from earlier work

Structure (SMILES): Cc1cc(C(=O)Nc2nc3cccc(Cl)c3n2[C@@H]2CCCCN(C(=O)/C=C/CN(C)C)C2)ccn1 [Compound A40, (R,E)-N-(7-chloro-1-(1-(4-(dimethylamino)but-2-enoyl)azepan-3-yl)-1H-benzo[d]imidazol-2-yl)-2-methylisonicotinamide]
- efficacy in patients: shown efficacy
